# Antibody variant affinities, Ab-14 light chain, assay B

Target peptide (SARS-CoV-2 spike, HR2 region): PDVDLGDISGINAS

Parent: Ab-14, a human scFv built as VH, the linker GGGGSGGGGSGGGGS, VL. Only the CDRs of the light chain vary.
VH: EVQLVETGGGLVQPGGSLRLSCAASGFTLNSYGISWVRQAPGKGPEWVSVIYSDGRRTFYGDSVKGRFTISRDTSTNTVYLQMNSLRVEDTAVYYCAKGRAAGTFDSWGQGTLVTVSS
VL: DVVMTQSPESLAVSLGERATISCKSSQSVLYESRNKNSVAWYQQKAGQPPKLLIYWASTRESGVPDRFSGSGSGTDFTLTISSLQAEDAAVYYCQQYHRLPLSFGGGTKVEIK

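The parent was found by panning a naive human phage display library on the peptide. This is the validation round: designs drawn from the data on random variants, tested in the same kind of assay. Several design methods are mixed in this list. The assay is AlphaSeq: two haploid yeast populations carry antibody and antigen on their surface. Mating (16 h, 30 °C) was followed by selection of diploids and sequencing of their barcodes. A regression on co-assayed BCL2-family reference pairs converts the normalised counts of each replicate to an apparent Kd. Mating was done six times.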

Each variant is given by its three light chain CDRs, as the data file delimits them; those of the parent are KSSQSVLYESRNKNSVA, WASTRES, QQYHRLPLS. Values are log10 of the apparent Kd in nM; lower means stronger binding. A mean of the replicates is given; it leaves out those without a signal. An entry "not detected" has no value in the source: the pair was not observed among the diploids in any replicate. This suggests poor binding but is not conclusive.

| CDR-L1 | CDR-L2 | CDR-L3 | mean log10 Kd (nM) | replicates with signal |
|---|---|---|---|---|
| KIGMTLNQLYEKQNNVA | DLVTRED | QQYHRLPLS | -0.20 | 6 of 6 |
| KSSQSVLYESRNDNSVA | WASTREA | QQYHRLPLS | 1.34 | 5 of 6 |
| KLGQVTETMSLNRNSVA | HMSTRED | QQYHRLPLS | 0.60 | 6 of 6 |
| TISQSTYWESYNKNSVA | QTSTREE | QDYDRLPLS | 1.89 | 2 of 6 |
| NVGQLMDGATRNKNSVA | HQSTRED | QHYHRLPLS | 1.26 | 6 of 6 |
| KMSQSMWYESRASNSVA | NASNRLS | QQYHRLPLS | -0.14 | 6 of 6 |
| KSLQSSLYESENKNSVA | WASTRES | QQYHRLPLS | 1.18 | 6 of 6 |
| RIDDYPNMLGKNKESIA | EAALTLT | QQYARLPLS | 0.94 | 6 of 6 |
| KSSQSVLYESRNKNSVA | EASTRES | QTYSRLPLS | 0.79 | 6 of 6 |
| KLSQSMWYESRNSNSVA | NASNRLS | QQYHRLPLS | -0.07 | 6 of 6 |
| KLSQSVLFESRNKNSVA | DASTRES | QQYHRLPLS | -0.47 | 6 of 6 |
| NFSQMVLTGSTLKNSVA | HASTREE | QQYHRLPLI | 1.04 | 6 of 6 |
| KLYQVGLGSQKVDRNIA | ETSTRCT | QSYQRLPLS | 0.94 | 6 of 6 |
| TIGAQLMYGMRQRSNVA | EVSERLN | QQYDRLPLL | 1.15 | 6 of 6 |
| KSSQSVWWESRNKNSVA | EASTRES | QCYHRLPLS | 1.12 | 6 of 6 |
| KVSQSVLYEQRNKNSVA | EASTRES | QQYHRLPLS | 0.04 | 6 of 6 |
| QIQEESEVGYKDKNSMA | DSECKAA | QQYFQLPLM | 0.50 | 6 of 6 |
| KLSQSVLYESNNKNSVA | WASTRES | QQYHRLPLD | 1.73 | 2 of 6 |
| NLSYLQGEPTNSVNNVA | QTSKRAH | QQYQHLPLC | 1.10 | 6 of 6 |
| KSPQSVLYESRNKNSVA | HASTRED | QSYHRLPLS | 0.18 | 6 of 6 |
| KQSQSEGGESRNKNSVA | HASKRES | QQYHRLPLS | 1.05 | 6 of 6 |
| KSSISYLYESTNENSVA | EASTREQ | QQYHRLPLS | 1.10 | 6 of 6 |

Second part, the sequence after the result:

| mean log10 Kd (nM) | replicates with signal | CDR-L1 | CDR-L2 | CDR-L3 |
|---|---|---|---|---|
| 0.39 | 6 of 6 | KHSPSEEYESRDKNSVA | HASTRMS | QQYHRLPLS |
| 1.88 | 5 of 6 | KSSQSVLDESRNKNSVA | WASTRES | QQYHRLPLF |
| 0.29 | 6 of 6 | KMAQSVLYESRNKNSVA | HASTRES | QQYHRLPLS |
| 1.87 | 6 of 6 | KLDYLNGEMDIGGDSIA | EVSTAGM | QQYIRLPLS |
| 2.35 | 5 of 6 | KLGVSMGILEQYRNSVA | QNSTREE | QQYDHLPLS |
| 0.78 | 6 of 6 | NITQQGDNMGDQRANVA | NGETLFH | QQYAHLPLL |
| 0.24 | 6 of 6 | KYSQSDEYESRNFNSVA | NASTRSM | QQYHRLPLS |
| 1.40 | 6 of 6 | KLPQSVLYESRNKNSVA | SASTRES | QQYARLTLS |
| -0.42 | 6 of 6 | KLSQSELYESRNKNSVA | DASQRLS | QQYHRLPLS |
| -0.39 | 6 of 6 | KLQQSDLYESRNKNNVA | NASLREQ | QDYHRLPLS |
| 0.86 | 5 of 6 | KLVMSWQYESRNKNSVA | HASQRCS | QQYHRLPLS |
| -0.39 | 6 of 6 | KLSQSVLYESRNKNSVA | GASYRES | QQYHRLPLS |
| 0.23 | 6 of 6 | HSSESVLYESRNKNSVA | DASTRES | QQYHRLPLS |
| 0.33 | 6 of 6 | KLRQSCEYEDRNKNSVA | NASQRCS | QQYHRLPLS |
| not detected | 0 of 6 | IVSQLMLWGMHVKNSIA | EAVTRLN | QQYDRLPLI |
| 0.42 | 6 of 6 | KMSQAWWYESRMKWSVA | NASEREQ | QQYHRLPLS |
| 1.92 | 6 of 6 | MISQLYNMGTFAINSVA | QASTRNE | QQYDRLPLM |
| -0.33 | 6 of 6 | KIQQSMLYESRNKNSVA | NASTREE | QQYHRLPLM |
| 2.17 | 5 of 6 | KLMWSVMLQSRNKNSVA | QASTRME | QQYHRLPLS |
| 1.57 | 5 of 6 | TLVQSVMSGSRIKNSVA | NAETRYD | QHYHRLPLS |
| -0.05 | 6 of 6 | KLSMVTGHMSMAKNNVA | EMETREK | QQYNRLPLA |
| 0.27 | 6 of 6 | KLQQSVEYEARNQNSVA | SASTRLD | QQYHRLPLS |
| 0.86 | 6 of 6 | MISSVMGINNMYQSSVA | QAETRVE | QQYDRLPLA |

Excerpt, the final 4 entries:

CDR-L1	CDR-L2	CDR-L3	mean log10 Kd (nM)	replicates with signal
TLVQSVMSGSRIKNSVA	NAETRYD	QHYHRLPLS	1.57	5 of 6
KLSMVTGHMSMAKNNVA	EMETREK	QQYNRLPLA	-0.05	6 of 6
KLQQSVEYEARNQNSVA	SASTRLD	QQYHRLPLS	0.27	6 of 6
MISSVMGINNMYQSSVA	QAETRVE	QQYDRLPLA	0.86	6 of 6

The authors averaged sequences with at least three values out of six and counted those with two or fewer as poor binders. A sequence measured in both rounds can read differently, since the two assays cover different ranges. The parent sequence was in this pool as ten entries: three were never detected, three once, and four in most replicates, with averages from 0.34 to 2.37. Empty control strains, which show no peptide, gave a signal in 4% of pairings with all light chain designs; the median was 2.64 and 95% of these signals were weaker than 1.59. No background was subtracted.

From the AlphaSeq antibody data of Li et al. 2023 (doi:10.1038/s41467-023-39022-2), copy in the FLAb collection.